Target: T1, muscarinic receptors (ileum) (Cavia porcellus, UniProt H0W1Z3)
T1 construct: from tissue; host or cells: isolated ileum of the guinea pig
Experiment: Dissociation constants (KB values) on the isolated ileum
Settings: guinea pig, methacholine, 30 minutes contact

Amino acid sequences for entries named in this document (tags omitted). Residues count along the entry.
UniProt H0W1Z3, 1-590: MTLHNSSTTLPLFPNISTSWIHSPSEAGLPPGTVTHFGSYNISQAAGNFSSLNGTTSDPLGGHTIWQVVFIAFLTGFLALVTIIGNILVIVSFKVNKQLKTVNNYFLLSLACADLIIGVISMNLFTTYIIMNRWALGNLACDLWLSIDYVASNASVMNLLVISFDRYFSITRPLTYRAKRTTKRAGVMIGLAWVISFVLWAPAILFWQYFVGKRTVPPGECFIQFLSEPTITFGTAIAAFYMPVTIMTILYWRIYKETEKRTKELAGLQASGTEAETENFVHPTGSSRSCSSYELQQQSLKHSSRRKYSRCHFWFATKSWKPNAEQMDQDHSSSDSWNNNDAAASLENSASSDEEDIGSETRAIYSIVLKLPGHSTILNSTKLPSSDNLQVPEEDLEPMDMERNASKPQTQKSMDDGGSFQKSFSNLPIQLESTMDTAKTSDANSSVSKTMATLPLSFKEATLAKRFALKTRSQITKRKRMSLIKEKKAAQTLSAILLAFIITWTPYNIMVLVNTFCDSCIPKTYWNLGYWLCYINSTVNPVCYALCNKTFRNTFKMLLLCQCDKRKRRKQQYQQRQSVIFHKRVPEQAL

Compound: CCN(CC)CC1CCCCN1CC(=O)N1c2ccccc2C(=O)Nc2cccnc21 (stereo not shown) [Substance X, 11-[[2-[(diethylamino)methyl]-1-piperidinyl]acetyl]-5,11-dihydro-6H-pyrido[2,3-b][1,4]benzodiazepin-6-one]
- Kb: 0.617 µM

Reference: patent US4931436A, “Condensed diazepinones, processes for preparing them and pharmaceutical compositions containing these compounds” (Dr. Karl Thomae GmbH, priority 1988, dated 1990)
